Assay [1] has as its target T1, 5-HT transporter (Rattus norvegicus, UniProt P31652). As to the kind of experiment: Displacement of [^3 H]paroxetine binding to 5-HT transporter sites in rat frontal cortex. Further details: from tissue; host or cells: rat frontal cortex.
The next assay has as its target T2, dopamine transporter (Rattus norvegicus, UniProt P23977).
T2 construct: was used to label dopamine transporters in rat striatal membranes; from tissue; host or cells: rat striatal membranes
As to the kind of experiment: Displacement of [^125 I]RTI-55 binding to dopamine transporters in rat striatal membranes. Conditions: 5-HT K1 / DA K1; higher numbers demonstrate relatively greater dopamine transporter potency.

Sequences of proteins named here, by UniProt entry; tags and fusion partners are left off.
UniProt P31652, whole entry: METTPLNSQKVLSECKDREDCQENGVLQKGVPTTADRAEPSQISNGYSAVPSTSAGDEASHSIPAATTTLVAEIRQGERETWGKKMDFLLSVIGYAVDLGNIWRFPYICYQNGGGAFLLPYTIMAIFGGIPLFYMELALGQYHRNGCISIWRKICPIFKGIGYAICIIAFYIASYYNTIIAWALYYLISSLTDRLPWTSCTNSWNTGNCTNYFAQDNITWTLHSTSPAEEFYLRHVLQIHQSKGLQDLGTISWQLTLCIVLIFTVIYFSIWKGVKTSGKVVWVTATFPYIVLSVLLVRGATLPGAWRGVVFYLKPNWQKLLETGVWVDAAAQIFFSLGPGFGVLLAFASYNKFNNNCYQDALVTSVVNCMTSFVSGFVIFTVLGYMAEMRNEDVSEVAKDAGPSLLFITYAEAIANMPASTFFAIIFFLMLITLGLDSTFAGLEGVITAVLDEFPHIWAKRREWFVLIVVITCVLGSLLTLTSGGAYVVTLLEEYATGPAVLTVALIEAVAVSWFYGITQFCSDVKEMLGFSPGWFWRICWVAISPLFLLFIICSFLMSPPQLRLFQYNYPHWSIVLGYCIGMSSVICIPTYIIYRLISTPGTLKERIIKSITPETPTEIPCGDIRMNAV
UniProt P23977, whole entry: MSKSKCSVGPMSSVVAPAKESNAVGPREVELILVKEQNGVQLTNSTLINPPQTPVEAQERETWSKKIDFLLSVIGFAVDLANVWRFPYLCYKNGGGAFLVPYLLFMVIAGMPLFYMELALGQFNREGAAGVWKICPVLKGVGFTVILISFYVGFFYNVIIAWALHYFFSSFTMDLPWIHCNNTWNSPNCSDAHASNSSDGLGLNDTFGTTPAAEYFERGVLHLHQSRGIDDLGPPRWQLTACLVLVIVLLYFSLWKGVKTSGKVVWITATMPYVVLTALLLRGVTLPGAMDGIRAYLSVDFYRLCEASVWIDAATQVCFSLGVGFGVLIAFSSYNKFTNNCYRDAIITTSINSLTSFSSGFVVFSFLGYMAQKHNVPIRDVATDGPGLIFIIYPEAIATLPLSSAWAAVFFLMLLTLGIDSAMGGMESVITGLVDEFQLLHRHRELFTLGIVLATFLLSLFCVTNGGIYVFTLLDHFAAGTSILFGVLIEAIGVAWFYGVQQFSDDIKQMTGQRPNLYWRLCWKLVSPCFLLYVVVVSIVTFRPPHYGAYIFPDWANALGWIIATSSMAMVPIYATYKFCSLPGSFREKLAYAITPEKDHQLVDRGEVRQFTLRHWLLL

The target of assay [2] is T1, 5-HT transporter. As to the kind of experiment: Inhibition of [^3 H]5-HT uptake in dissociated frontal cortex cells from fetal and adult rat brain. The class given is cell-based. Further details: from tissue; host or cells: rat frontal cortex.

Like-named read-outs stand apart in the source and are kept apart here.

With `COC(=O)[C@@H]1[C@@H](c2ccccc2)C[C@@H]2CC[C@H]1N2C` (relative stereo) [WF-6], the Ki at 5-HT transporter [1] is more than 10000 nM.
For the molecule `COC(=O)[C@H]1[C@@H](c2ccccc2)C[C@@H]2CC[C@H]1N2C` (relative stereo) [WF-10], the Ki at 5-HT transporter [1] was found to be 1290 ± 51 nM. Also, the binding ratio on dopamine transporter was determined as 13.1.
A word on the IC50: it is the concentration at which inhibition is half-maximal. As to `COC(=O)[C@H]1[C@@H](OC(=O)c2ccccc2)C[C@@H]2CC[C@H]1N2C` [cocaine, reference compound], at 5-HT transporter [1] (read-out: [^3 H] paroxetine K1, [^3 H]paroxetine, rat frontal cortex), the Ki was 302 ± 22 nM. On 5-HT transporter [2], this molecule displayed an IC50 of 591 ± 48 nM.

The record behind these values is patent US6008227A, “Process for blocking 5-HT and dopamine uptake with biologically active tropane derivatives” (Wake Forest University, priority 1993, dated 1999).
